Source: patent US20230139516A1 (CEDARS SINAI MEDICAL CENTER, published 2023)

Molecular target: T1, receptor-interacting protein kinase 2 (RIPK2), endogenous (human)
T1 construct: Endogenous protein detected in cells with anti-RIPK2 antibodies (PLA, IP)
Assay: proximity ligation assay (PLA) of endogenous proteins in parental HEK293T cells

B1: c-Myc (other, human, UniProt P01106-1 1-439, looked up)
chain: MPLNVSFTNRNYDLDYDSVQPYFYCDEEENFYQQQQQSELQPPAPSEDIWKKFELLPTPPLSPSRRSGLCSPSYVAVTPFSLRGDNDGGGGSFSTADQLEMVTELLGGDMVNQSFICDPDDETFIKNIIIQDCMWSGFSAAAKLVSEKLASYQAARKDSGSPNPARGHSVCSTSSLYLQDLSAAASECIDPSVVFPYPLNDSSSPKSCASQDSSAFSPSSDSLLSSTESSPQGSPEPLVLHEETPPTTSSDSEEEQEDEEEIDVVSVEKRQAPGKRSESGSPSAGGHSKPPHSPLVLKRCHVSTHQHNYAAPPSTRKDYPAAKRVKLDSVRVLRQISNNRKCTSPRSSDTEENVKRRTHNVLERQRRNELKRSFFALRDQIPELENNEKAPKVVILKKATAYILSVQAEEQKLISEEDLLRKRREQLKHKLEQLRNSCA
notes: also called c-Myc oncoprotein
B1: no binding.
